{"source": "patent US11795144B2", "about": "“Inhibitors of RAC1 and uses thereof for treating cancers” (INSTITUT NATIONAL DE LA SANTE ET DE LA RECHERCHE MEDICALE …, priority 2017, dated 2023)", "key": {"Rac": {"system": "Rac", "assay": "Rac activator-induced membrane ruffling (actin reorganization) in 3T3 fibroblasts", "assay_type": "cell-based", "details": "3T3 cells, compound added 1 h before Rac activation", "experimental": "(§1) FIGS. 1 to 3 relate to the inhibition of the Rac-induced cell functions by compound (2) (or A4.1). […] 3T3 cells were incubated in serum-free growth medium, either alone, or supplemented with (2) or NSC23766 at indicated concentration 1 h before Rac activation. Ruffles are indicated by arrows (left panel). Percentages of cells with ruffles were quantified (right panel). Results shown are representative of 3 independent experiments. […] 3T3 cells were incubated or not with (2) or NSC23766. Left panel, representative records with arrows indicating the cell location at different times. Right panel, quantification of cell speed in each experimental conditions. Results shown are representative of 2 independent experiments. […] Upper panel, representative kinetics of fibroblast adhesion pre-treated or not with 10 μm (2) or NSC23766. Lower panel, quantification of cell adhesion. Results shown are representative of 3 independent experiments.\ncDNA coding for constitutive active Rac1 (Rac^V12-RFP) were transfected in NIH3T3 with jetPEI (Polyplus transfection) according to the manufacturer's instructions. […] After staining, images were captured by a fluorescence microscope (Nikon). The actin cytoskeleton organization was analyzed to observe Rac1-dependent ruffle formation."}, "3T3 cells": {"system": "3T3 cells", "assay": "Unidirectional cell migration (cell speed)", "assay_type": "cell-based", "experimental": "as §1\nCells (1000/well) were seeded in a 96 well plate with […] fibronectin stripes (CytooPlates Motility, CYTOO) in medium with 1% SVF and allowed to spread for 4 hours before capturing time-lapse images for 24 hours (image/10 minutes) on a Widefield Leica DMI 6000B drove with Metamorph software. Cells speed was measured with ImageJ software."}}, "data": [{"smiles": "CCN(CC)CCCC(C)Nc1nc(C)cc(Nc2ccc3nc(C)cc(N)c3c2)n1", "note": "(centres unmarked) [NSC23766, reference compound]", "values": [{"measurement": "Efficiency of Rac activator to induce ruffle / actin reorganization", "setting": "Rac", "result": "strongly decreased"}, {"measurement": "Cell migration (cell speed)", "setting": "3T3 cells", "result": "slow down"}]}]}
